Source: ChEMBL document CHEMBL1671633, “Repeated administration of high-dose intermittent rifapentine reduces rifapentine and moxifloxacin plasma concentrations” (Antimicrob Agents Chemother, 2008)

Test system: Homo sapiens
Assay: Tmax in healthy human assessed as 25-desacetyl-rifapentine level at 900 mg, po thrice weekly measured on day 19 post compound dose by HPLC
Format: ADME, organism-based
Settings: in vivo

COc1c(N2C[C@@H]3CCCN[C@@H]3C2)c(F)cc2c(=O)c(C(=O)O)cn(C3CC3)c12 [MOXIFLOXACIN]
Tmax: 10.8 h
